# scFv variants of Ab-95 (light chain) against a SARS-CoV-2 spike peptide

The measurements come from Engelhart et al. 2022 (doi:10.1038/s41597-022-01779-4) through the FLAb antibody collection.

Target peptide (SARS-CoV-2 spike, HR2 region): PDVDLGDISGINAS

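Variants in AAYL52 differ from the parent at up to three CDR positions; double and triple changes were sampled at random. AlphaSeq pools MATa yeast showing the antibodies with MATalpha yeast showing the peptide. After mating in shaken culture at 30 °C for 16 h, diploids were selected and their barcode pairs sequenced. Read counts were normalised to the haploid input and turned into Kd by a linear fit to BCL2-family pairs of known affinity, for each replicate. There are three technical replicates.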

The variants keep the heavy chain, the linker and the frameworks of Ab-95 (scFv order VH, a (GGGGS)3 linker, VL).
VH: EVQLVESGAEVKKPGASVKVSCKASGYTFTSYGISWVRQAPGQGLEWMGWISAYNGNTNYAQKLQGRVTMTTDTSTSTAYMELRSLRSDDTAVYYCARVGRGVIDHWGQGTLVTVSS
VL: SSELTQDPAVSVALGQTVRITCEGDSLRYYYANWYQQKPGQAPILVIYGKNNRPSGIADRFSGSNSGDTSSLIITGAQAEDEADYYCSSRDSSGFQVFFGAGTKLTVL

The parent's light chain CDRs are EGDSLRYYYAN, GKNNRPS, SSRDSSGFQVF; each variant's own CDRs replace them letter for letter.
This list gathers variants with a substitution at S55 (VL, numbered from residue 1).
Numbers give log10(Kd / nM), so 0 is 1 nM and 3 is 1 µM. Smaller is tighter.
A mean of the replicates is given; it leaves out those without a signal.
For reference, the parent read 2.31 as the reference entry and 2.25 as a member of this library.
Three control strains display no target. For library AAYL52, 28% of the pairings with them gave a signal, with a median of 3.91 and one signal in twenty below 2.90, so weak values seen in few replicates may be background. The control count says in how many pairings with the empty strains this scFv gave a signal.

With EGDSLRYYYAN / GKNNRPT / SSRDSSGDQVF the result was 3.06 (3 of 3 replicates; controls 3 of 9).
With EGDSLRYHYAN / GKNNRVV / SSRDSSGFQVF the result was 1.46 (3 of 3 replicates; controls 4 of 9).
With EGDSLRYYYAN / GKNNRPI / SHRDSSGFQVL the result was 2.60 (1 of 3 replicates; controls 2 of 9).
With EGDSLRDYYAN / GKNERPY / SSRDSSGFQVF the result was 1.42 (3 of 3 replicates; controls 5 of 9).
With EWDSPRYYYAN / GKNNRPI / SSRDSSGFQVF the result was 4.00 (2 of 3 replicates; controls 4 of 9).
With EGDSLRYYSAN / GKNNRYY / SSRDSSGFQVF the result was 2.69 (3 of 3 replicates; controls 4 of 9).
With EGDSLRYYYAN / GKNNRPW / SSRDESGSQVF the result was 2.48 (3 of 3 replicates; controls 0 of 9).
With EGPSLRYYYAN / GKNNRPI / SSRDSSGFSVF the result was 3.02 (3 of 3 replicates; controls 1 of 9).
With EGDSLRYYYAN / FKNNVPW / SSRDSSGFQVF the result was 3.21 (1 of 3 replicates; controls 2 of 9).
With EGDSLRYYYAN / GKNNRPK / SSRDSSGNQVF the result was 2.35 (1 of 3 replicates; controls 1 of 9).
With EGDSLRYYYAN / GKNNRPD / SSRDSSNFQVF the result was 0.95 (3 of 3 replicates; controls 1 of 9).
With HGDSLRYYYAN / GKNNRPT / SSRDSSGFKVF the result was 2.02 (3 of 3 replicates; controls 3 of 9).
With EGDSLRYYYAN / GKNNRPL / SSRDSSGFQVF the result was 2.26 (3 of 3 replicates; controls 1 of 9).
With EGDSLFYYYAN / GKNVRPA / SSRDSSGFQVF the result was 3.10 (3 of 3 replicates; controls 4 of 9).
With ELDSLRYYYAN / GKNNRDN / SSRDSSGFQVF the result was 4.32 (1 of 3 replicates; controls 2 of 9).
With EGDSLRYYYAN / GKNNRDG / SSRDSSGFQVF the result was 2.99 (3 of 3 replicates; controls 3 of 9).
With EGDHLRYYYAN / HKNNRPF / SSRDSSGFQVF the result was 4.07 (1 of 3 replicates; controls 3 of 9).
With EGDSLNYYYAN / GKNNLPE / SSRDSSGFQVF the result was 2.46 (3 of 3 replicates; controls 1 of 9).
With EGDSLRYYYAN / GKNNRPQ / SSRDSSDFQVF the result was 3.00 (2 of 3 replicates; controls 5 of 9).
With EGDSLRYYYAN / MKNNRPG / SSRDSSGFFVF the result was 4.30 (2 of 3 replicates; controls 3 of 9).
With EGDSLRYYYAN / GKNNTPY / SSRDVSGFQVF the result was 3.05 (3 of 3 replicates; controls 1 of 9).
With EGDSLRYKYAN / GKNNRPK / SSRDSIGFQVF the result was 2.69 (3 of 3 replicates; controls 0 of 9).
With EGDSLRYYYSN / GKNNRPM / SSRDSSGFQVF the result was 2.60 (3 of 3 replicates; controls 3 of 9).
With EGDSLRYYYAN / GKNNRPN / SSRDSSGFQVF the result was 1.61 (3 of 3 replicates; controls 4 of 9).
With EGDSLRYYYAN / LKNNRPA / SSRDNSGFQVF the result was 5.53 (1 of 3 replicates; controls 3 of 9).
With EGDSHWYYYAN / GKNNRPQ / SSRDSSGFQVF the result was 2.51 (3 of 3 replicates; controls 2 of 9).
With EGDSLRYYYAN / CKNNRPN / SSPDSSGFQVF the result was 3.94 (2 of 3 replicates; controls 1 of 9).
With EGDSLRYYYAN / GKNNRPQ / SSRSSGGFQVF the result was 2.37 (3 of 3 replicates; controls 4 of 9).
With EGDSLRYYQAN / GKNNRPK / SSRDSSGFQYF the result was 2.77 (3 of 3 replicates; controls 4 of 9).
With EGDSLRYYSAN / GKNNRPI / SSKDSSGFQVF the result was 2.94 (3 of 3 replicates; controls 3 of 9).
With EGDSLRYYYAN / GKNNSPF / SSRDSSGFQVF the result was 3.05 (3 of 3 replicates; controls 2 of 9).
With EGDSLRYYYAN / GKNNRPA / SSRMSSGFQVF the result was 2.55 (3 of 3 replicates; controls 1 of 9).